According to patent US11834480B2 (priority 2020, dated 2023):

System: Pronase
Settings: after one hour; 10 μM polypeptide, about 1 mg/mL Pronase, 37° C.

## ATVKFTHQGEEKQVDISKIKWVIRWGQYINVFKYDENGGAKGWGYVSEKDAPKELLQMLKKR
  polypeptide observed by LC-MS after incubation with Pronase: No L-R11.1.6 D36N was observed
